Experimental data published in PMC4736438, “Cation–π Interactions Contribute to Substrate Recognition in γ‐Butyrobetaine Hydroxylase Catalysis” (Chemistry (Weinheim an Der Bergstrasse, Germany), 2015).

Protein sequences, listed by entry. Tags and fused reporters are not part of them.
UniProt P80193, whole entry: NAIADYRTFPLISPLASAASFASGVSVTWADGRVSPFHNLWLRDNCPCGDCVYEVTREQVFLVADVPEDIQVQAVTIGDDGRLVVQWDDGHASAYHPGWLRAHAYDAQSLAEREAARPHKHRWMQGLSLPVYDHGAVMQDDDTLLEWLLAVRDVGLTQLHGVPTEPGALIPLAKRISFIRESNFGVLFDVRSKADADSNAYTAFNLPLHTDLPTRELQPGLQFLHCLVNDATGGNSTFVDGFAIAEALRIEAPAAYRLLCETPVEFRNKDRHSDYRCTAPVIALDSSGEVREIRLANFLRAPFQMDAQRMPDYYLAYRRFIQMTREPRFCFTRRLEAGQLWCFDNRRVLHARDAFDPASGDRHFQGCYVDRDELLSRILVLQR

How the values were obtained:
[1] = target: T1, psBBOX (Pseudomonas sp. AK-1, UniProt P80193); experiment: 1H NMR (CPMG) protein titration; conditions: psBBOX-Zn(II)-2OG complex (Zn for Fe); […] Tris-D11 pH […] K; tested form: bromide
[2] = target: T1, psBBOX; experiment: LC-MS hydroxylation kinetics; type: biochemical; conditions: read-out: 2; […] psBBOX, […] FeSO4, […] 2OG, […] ascorbate, Tris pH […] K; tested form: bromide
Description: LC-MS hydroxylation kinetics on psBBOX

SMILES: C[P+](C)(C)CCCC(=O)O
- Kd [1]: 7 µM
- Km [2]: 1200 µM
